Chains of the proteins cited; added tags and fusions are not shown.
UniProt P21554, whole entry: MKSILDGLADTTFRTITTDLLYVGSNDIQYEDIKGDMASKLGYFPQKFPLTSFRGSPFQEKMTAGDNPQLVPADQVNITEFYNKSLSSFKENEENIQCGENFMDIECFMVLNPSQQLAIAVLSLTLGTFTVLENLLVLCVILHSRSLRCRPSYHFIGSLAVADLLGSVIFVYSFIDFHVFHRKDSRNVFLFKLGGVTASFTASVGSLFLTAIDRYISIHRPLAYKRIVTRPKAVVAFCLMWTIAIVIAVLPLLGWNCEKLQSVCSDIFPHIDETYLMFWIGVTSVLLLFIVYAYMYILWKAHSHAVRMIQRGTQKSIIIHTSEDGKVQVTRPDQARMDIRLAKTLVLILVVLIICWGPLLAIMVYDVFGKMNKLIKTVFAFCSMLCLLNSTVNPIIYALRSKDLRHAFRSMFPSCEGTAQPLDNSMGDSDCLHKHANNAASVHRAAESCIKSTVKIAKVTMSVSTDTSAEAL

According to publication PMC6813218 (Frontiers in Molecular Neuroscience, 2019):

Molecular target: hCB1R (Homo sapiens, UniProt P21554)
Type: binding
Conditions: DMSO; 24°C; dissociation started with 1 μM unlabeled CP55940
Method: The assay was terminated by rapid filtration onto GF/B filters pre-soaked in assay buffer using a Brandel cell harvester. The filters were washed six times with the ice-cold buffer before being dried in a heated cabinet. Filters were placed in vials to which 3 mL Ultima Gold scintillation fluid was added. The radioactivity in each vial was then counted for 3 min in a Tri-Carb liquid scintillation counter.

CCCCCCC(C)(C)c1ccc([C@@H]2C[C@H](O)CC[C@H]2CCCO)c(O)c1 [[^3H]CP55940]
t1/2 (min) (95% CI) of [3H]CP55940 dissociation: 4.75 (2.89–13.4) min
